BindingDB's records for doi:10.1016/s0028-3908(97)00049-x (Roche Bioscience, 1997)

Protein sequences, listed by entry. Tags and fused reporters are not part of them. Lines headed by an entry give the natural chain unless they say otherwise; changes in a name come on top.
UniProt P14842, whole entry: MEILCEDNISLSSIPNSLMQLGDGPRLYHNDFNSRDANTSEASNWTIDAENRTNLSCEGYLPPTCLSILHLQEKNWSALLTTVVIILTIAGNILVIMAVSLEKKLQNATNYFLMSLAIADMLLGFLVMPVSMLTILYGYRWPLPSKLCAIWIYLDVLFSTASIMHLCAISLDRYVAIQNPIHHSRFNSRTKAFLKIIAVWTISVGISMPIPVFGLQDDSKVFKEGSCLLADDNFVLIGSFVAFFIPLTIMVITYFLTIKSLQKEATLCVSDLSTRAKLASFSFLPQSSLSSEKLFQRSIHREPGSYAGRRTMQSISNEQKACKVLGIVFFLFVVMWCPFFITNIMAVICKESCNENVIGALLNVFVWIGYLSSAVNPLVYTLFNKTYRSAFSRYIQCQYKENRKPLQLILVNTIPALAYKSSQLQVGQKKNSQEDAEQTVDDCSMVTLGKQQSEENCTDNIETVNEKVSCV
UniProt P28335: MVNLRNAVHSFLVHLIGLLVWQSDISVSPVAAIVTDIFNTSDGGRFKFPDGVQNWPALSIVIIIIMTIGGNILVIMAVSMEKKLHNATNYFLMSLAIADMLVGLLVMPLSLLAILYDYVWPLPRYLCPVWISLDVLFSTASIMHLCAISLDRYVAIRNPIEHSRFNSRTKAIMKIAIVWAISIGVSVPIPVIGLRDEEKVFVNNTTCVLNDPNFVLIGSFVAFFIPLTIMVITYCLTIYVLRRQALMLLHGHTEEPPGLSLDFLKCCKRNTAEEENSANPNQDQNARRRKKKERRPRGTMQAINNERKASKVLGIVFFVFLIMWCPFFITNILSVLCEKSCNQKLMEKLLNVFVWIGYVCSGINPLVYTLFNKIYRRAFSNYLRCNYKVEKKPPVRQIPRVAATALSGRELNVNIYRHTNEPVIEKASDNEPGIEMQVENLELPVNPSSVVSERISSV

Columns and labels:
[1] = target: 5-hydroxytryptamine receptor 2A (Rattus norvegicus, UniProt P14842)
[2] = target: 5-hydroxytryptamine receptor 2C (Homo sapiens, UniProt P28335)

Compound | Ki [1] | Ki [2]
CNS(=O)(=O)Cc1ccc2[nH]cc(CCN(C)C)c2c1 [Sumax] | > 10000 nM | –
Cc1nc2sccn2c(=O)c1CCN1CCC(=C(c2ccc(F)cc2)c2ccc(F)cc2)CC1 | 0.29 nM | –
CN1C[C@H](C(=O)N[C@]2(C)O[C@@]3(O)[C@@H]4CCCN4C(=O)[C@H](Cc4ccccc4)N3C2=O)C=C2c3cccc4[nH]cc(c34)C[C@H]21 [12'-hydroxy-2'-methyl-5'alpha-(phenylmethyl)ergotaman-3',6',18-trione] | 1.41 nM | –
CN1C[C@@H](NS(=O)(=O)N(C)C)C[C@@H]2c3cccc4c3c(cn4C)C[C@H]21 [MESULERGINE] | – | 1.69 nM
